Source: US20060194259A1, “Method for isolating an allosteric effector of a receptor” (priority 2002, published 2006)

Target: receptor EGFP-NK2R (UniProt P16610)
Test: Inhibition of the binding of [3H]SR 48968 to EGFP-NK2R
Design: % al (max): maximum value observed for the increase in amplitude of the rapid dissociation rate; ns = n; other: 20 nM of NK; % al (at 10 μM); other: compou; fused on or other part: EGFP fused to the receptor as FRET donor
Conditions: 1 nM [3H]SR48968; maximal reversal
Experimental: 25,000 cells expressing the receptor EGFP-NK2R are incubated for 3 hours at 4° C. in a final volume of 500 μl of Hepes buffer in the presence of 1 nM of [^3H] SR48968 and variable concentrations of NKA or 805. On completion of the incubation, the reaction mixtures are filtered on GF/C (Whatmann) glass fibre filters previously incubated in Hepes buffer complemented by 1% (W/V) of powdered semi-skimmed milk, and rinsed three times with 5 ml of Hepes buffer at 4° C. The filters are then arranged in scintillation counter vials to which 3 ml of scintillating cocktail is added. The radioactivity is measured after 16 hours in a radioactivity counter.

neurokinin A [NKA]
% of the binding of [3H]SR 48968 reversed: 100%
